Literature values, collected in publication PMC11314561, “Design and Synthesis of Novel Aminoindazole-pyrrolo[2,3-b]pyridine Inhibitors of IKKα That Selectively Perturb Cellular Non-Canonical NF-κB Signalling” (Molecules, 2024).

By UniProt entry, the sequences of proteins in these tests, tags left out.
UniProt O15111, whole entry: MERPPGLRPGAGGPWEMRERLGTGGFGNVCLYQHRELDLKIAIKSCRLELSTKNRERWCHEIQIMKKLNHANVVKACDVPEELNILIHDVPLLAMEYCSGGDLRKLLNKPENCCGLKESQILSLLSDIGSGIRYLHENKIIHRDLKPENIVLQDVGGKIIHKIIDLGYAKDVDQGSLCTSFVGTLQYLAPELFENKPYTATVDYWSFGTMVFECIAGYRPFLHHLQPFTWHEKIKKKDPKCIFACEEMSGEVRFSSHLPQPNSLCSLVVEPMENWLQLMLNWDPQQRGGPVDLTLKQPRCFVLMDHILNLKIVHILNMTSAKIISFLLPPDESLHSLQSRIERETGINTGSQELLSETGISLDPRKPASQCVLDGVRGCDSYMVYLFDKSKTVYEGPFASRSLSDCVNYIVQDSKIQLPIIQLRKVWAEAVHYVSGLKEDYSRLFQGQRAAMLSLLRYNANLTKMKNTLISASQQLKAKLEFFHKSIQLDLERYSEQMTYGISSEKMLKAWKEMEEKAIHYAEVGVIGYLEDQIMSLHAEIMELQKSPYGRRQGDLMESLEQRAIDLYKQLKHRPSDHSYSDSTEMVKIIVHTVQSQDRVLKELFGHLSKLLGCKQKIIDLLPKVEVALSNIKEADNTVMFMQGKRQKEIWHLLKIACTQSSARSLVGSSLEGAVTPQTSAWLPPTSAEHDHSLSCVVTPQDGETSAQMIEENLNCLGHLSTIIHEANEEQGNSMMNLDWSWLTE

Target: IKKα (Homo sapiens, UniProt O15111)
Conditions: read-out: Ki IKKα, previous hit; previous hit of the first series; cited from earlier work

## N#Cc1c[nH]c2nc(N)nc(-c3ccc(S(N)(=O)=O)cc3)c12
  Ki: 80 nM
